Where two headings read alike, the source gives them in different places.

Amino acid sequences for entries named in this document (tags omitted).
UniProt O14744, whole entry: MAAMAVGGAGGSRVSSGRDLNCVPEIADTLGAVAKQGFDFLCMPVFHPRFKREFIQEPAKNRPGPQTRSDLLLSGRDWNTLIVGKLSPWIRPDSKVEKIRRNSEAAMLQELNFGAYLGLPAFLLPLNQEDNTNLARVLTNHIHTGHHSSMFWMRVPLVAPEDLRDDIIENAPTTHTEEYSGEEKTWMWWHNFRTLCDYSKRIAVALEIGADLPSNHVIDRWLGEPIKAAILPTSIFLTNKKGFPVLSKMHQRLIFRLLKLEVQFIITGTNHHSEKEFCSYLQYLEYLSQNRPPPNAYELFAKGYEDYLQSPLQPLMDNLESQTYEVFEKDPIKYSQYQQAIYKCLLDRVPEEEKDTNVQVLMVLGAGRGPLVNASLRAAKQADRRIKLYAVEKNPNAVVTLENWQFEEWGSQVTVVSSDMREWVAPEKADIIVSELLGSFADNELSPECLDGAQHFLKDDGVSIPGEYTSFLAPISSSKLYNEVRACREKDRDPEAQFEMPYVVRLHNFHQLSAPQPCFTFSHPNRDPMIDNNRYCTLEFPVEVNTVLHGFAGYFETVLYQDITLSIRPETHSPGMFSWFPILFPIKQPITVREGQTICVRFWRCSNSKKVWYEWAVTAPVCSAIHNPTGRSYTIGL
UniProt Q9BQA1, whole entry partner: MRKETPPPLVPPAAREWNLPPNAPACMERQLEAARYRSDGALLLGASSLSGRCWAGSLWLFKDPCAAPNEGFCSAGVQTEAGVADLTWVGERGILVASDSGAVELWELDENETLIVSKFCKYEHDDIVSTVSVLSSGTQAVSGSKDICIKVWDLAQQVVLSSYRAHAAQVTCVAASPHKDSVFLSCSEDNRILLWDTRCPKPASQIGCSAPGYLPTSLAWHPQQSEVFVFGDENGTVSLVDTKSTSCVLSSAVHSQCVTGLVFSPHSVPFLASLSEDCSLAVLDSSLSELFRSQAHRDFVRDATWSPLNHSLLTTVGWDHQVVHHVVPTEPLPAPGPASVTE

For experiment [1], the target named is Full-length (FL)-PRMT5-MEP50 enzyme complex (Homo sapiens (Human), UniProt O14744). The experiment in a line: PRMT5-MEP50 Enzyme Methylation Assay (SAMDI). As to conditions: 0.5 nM PRMT5-MEP50, 75 nM biotinylated H4R3(Me1) peptide, 15 μM SAM, 150 minutes at 37° C. The method, then:
PRMT5-MEP50 Enzyme Methylation Assay
PRMT5/MEP50 biochemical assay is a direct measurement of the methylation activity of the enzyme complex on a short peptide substrate derived from the N-terminus of H4 histone. Methylation experiment is performed with recombinant protein. The assessment of inhibitory effect (IC50) of small molecules is measured by the effectiveness of the compounds to inhibit this reaction.
In this assay, the potency (IC50) of each compound was determined from a twenty-point (1:2 serial dilution; top compound concentration of 100000 nM) titration curve using the following outlined procedure. To each well of a white ProxiPlus 384 well-plate, 100 nL of compound (1% DMSO in final assay volume of 10 μL) was dispensed, followed by the addition of 8 μL of 1× assay buffer (50 mM Bicine pH 8.0, 1 mM DTT, 0.004% Tween20, 0.01% BSA) containing 0.5 nM of Full-length (FL)-PRMT5-MEP50 enzyme complex (recombinant proteins from baculovirus-transfected Sf21 cells: FL-PRMT5; MW=[…] and FL-MEP50; MW=38614). Plates were sealed and placed in a 37° C. humidified chamber for 30 minutes pre-incubation with compounds. Subsequently, each reaction was initiated by the addition of 2 μL 1× assay buffer containing 75 nM biotinylated H4R3(Me1) peptide, and 15 μM S-(5′-Adenosyl)-L-Methionine Chloride (SAM). […]

In experiment [2] the test system is PRMT5 (symmetric dimethylation of arginine (SDMA) in MCF-7 cells). The experiment in a line: PRMT5 Cell Target Engagement (TE) Assay (SDMA, high content imaging). As to conditions: read-out: TE Assay (EC50), treated for 3 days, top compound concentration of 10000 nM. The text has this: PRMT5 Cell Target Engagement (TE) Assay
The PRMT5 TE assay is a biomarker assay for identifying compounds that inhibit symmetric dimethylation of arginine (SDMA) of PRMT5 substrates. This assay detects symmetrically dimethylated nuclear proteins using high content imaging technology. Detection of the expression of symmetrically dimethylated nucleo proteins is through a mixture of primary rabbit monoclonal antibodies to SDMA (CST 13222), which in turn recognized by an Alexafluor 488 dye-conjugated anti-rabbit IgG secondary antibody. The IN Cell Analyzer 2200 measures nuclear Alexafluor 488 fluorescent dye intensity that is directly related to the level of expression of symmetrically dimethylated nuclear proteins at the single cell level. Nuclear AF488 dye intensities are compared to the mean value for DMSO treated cells […] to report percent of inhibition for each compound-treated well.
In this assay, the cell potency (EC50) of each compound was determined from a ten point (1:3 serial dilution; top compound concentration of 10000 nM) titration curve using the following outlined procedure. Each well of a BD falcon collagen coated black/clear bottom 384-well plate was seeded with 4000 MCF-7 cells and allowed to attach for 5 hours. Media from cell plate was removed at 0.5 mm above the bottom of the plate and replaced with 30 μL of fresh media containing 1.2× compounds in 0.1% DMSO. […]

In the case of `CCc1ccc2c(c1)CN[C@H]([C@H](O)CNC(=O)c1ccc(C(=O)N3C4CCC3COC4)cc1)C2`, the EC50 in experiment [1] (read-out: Enzyme Methylation Assay (EC50—1), first EC50 of biphasic fit) was found to be 1 nM; in experiment [1] (read-out: Enzyme Methylation Assay (EC50—2), second EC50 of biphasic fit) it was 549 nM; in experiment [2] it was 345 nM.

For the origin of these results see patent US10421743B2, “Tetrahydroisoquinolines as PRMT5 inhibitors” (CTXT PTY LTD, priority 2016, dated 2019).
